This test addresses T1, IL-23R (Homo sapiens, UniProt Q5VWK5).
T1 construct: HEK293 cells containing IL-23R, IL-12RP31 and a firefly luciferase reporter gene driven by a STAT-inducible promoter (Promega); host or cells: HEK293
T1 sequence (Q5VWK5 24-629): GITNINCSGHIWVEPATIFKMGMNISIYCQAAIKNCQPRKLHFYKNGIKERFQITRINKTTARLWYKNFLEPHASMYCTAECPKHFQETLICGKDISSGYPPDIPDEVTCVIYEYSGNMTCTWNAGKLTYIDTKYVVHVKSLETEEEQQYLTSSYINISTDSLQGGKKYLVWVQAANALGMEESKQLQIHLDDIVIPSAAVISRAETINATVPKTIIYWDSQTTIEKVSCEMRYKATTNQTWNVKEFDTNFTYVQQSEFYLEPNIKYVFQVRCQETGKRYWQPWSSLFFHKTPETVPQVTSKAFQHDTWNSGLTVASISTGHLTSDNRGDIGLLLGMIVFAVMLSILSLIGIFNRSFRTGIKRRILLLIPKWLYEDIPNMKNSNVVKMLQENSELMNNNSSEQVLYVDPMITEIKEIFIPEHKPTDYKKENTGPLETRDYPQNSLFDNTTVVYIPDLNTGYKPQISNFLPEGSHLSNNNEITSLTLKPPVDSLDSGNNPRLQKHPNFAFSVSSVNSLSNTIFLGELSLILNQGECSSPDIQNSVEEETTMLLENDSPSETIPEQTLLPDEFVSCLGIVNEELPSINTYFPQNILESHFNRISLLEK
The test can be described thus: IL23R Reporter Assay. The note with it: HEK293 cells containing IL-23R, IL-12Rβ1 and STAT-inducible firefly luciferase reporter, 10 ng/mL IL-23 (EC90), 5 h at 37° C. The format is cell-based. An excerpt: IL-23 binding to IL-23 receptors results in the activation of the Signal Transducer and Activator of Transcription 3 (STAT3) by phosphorylation and downstream signaling events. Accordingly. the ability of the inhibitors described herein to block IL-23 action can be assessed by monitoring the status of STAT3 activation in response to IL-23. This may be accomplished in reporter cell assays or in intact cells such as peripheral blood mononuclear cells (PBMCs).
Compounds were serially diluted in 100% (v/v) DMSO) and plated using an Echo acoustic dispenser (Labcyte) into 1536-well non-treated black assay plates (Corning #9146). 3 µL of HEK293 cells containing IL-23R, IL-12RP31 and a firefly luciferase reporter gene driven by a STAT-inducible promoter (Promega) were added to the plates (4000 cells/well), followed by 3 μL of 10 ng/mL IL-23 (equivalent to EC90 concentration). After 5 h at 37° C., 5% CO2, 95% relative humidity, cells were placed at 20° C. and treated with BioGlo reagent (Promega) according to the Manufacturer's instructions. Luminescence was measured on a Pherastar FSX (BMG LabTech). The data, provided in Tables 5a and 5b, were normalized to IL-23 treatment (0% inhibition) and 30 μM of control inhibitor (100% inhibition), and IC50 values were determined using a 4-parameter Hill equation.

pIC50: −log10 of the molar value. Where two headings read alike, the source gives them in different places.

With `CC(=O)NCCCC[C@@H]1NC(=O)[C@H](Cc2c[nH]c3c(C)cccc23)NC(=O)[C@H]([C@@H](C)O)NC(=O)[C@H](CCCCNC(=O)COCCOCCNC(=O)COCCOCCNC(=O)CC[C@H](NC(=O)[C@H]2CC[C@H](CNC(=O)CCCCCCCCCCCCCCCCCCC(=O)O)CC2)C(=O)O)NC(=O)[C@@H](NC(C)=O)C(C)(C)SSC(C)(C)[C@@H](C(=O)N[C@@H](Cc2ccc(OCCN)cc2)C(=O)N[C@@H](Cc2ccc3ccccc3c2)C(=O)NC2(C(=O)N[C@@H](CCCCNC(C)=O)C(=O)N[C@@H](CC(N)=O)C(=O)N[C@@H](Cc3cccnc3)C(=O)N(C)CC(N)=O)CCOCC2)NC1=O` [Example 74, MeCO-Pen*-K(PEG2PEG2gETrxC20OH)-T-7MeW-K(Ac)-Pen*-AEF-2Nal-THP-K(Ac)-N-3Pya-Sar-CONH2], the negative logarithm of the IC50 (pIC50) (read-out: IC50) was 9.77.

As to `CCCCCCCCCCCCCCCCCC(=O)N[C@@H](CCC(=O)NCCOCCOCC(=O)NCCOCCOCC(=O)NCCCC[C@@H]1NC(=O)[C@@H](NC(C)=O)C(C)(C)SSC(C)(C)[C@@H](C(=O)N[C@@H](Cc2ccc(OCCN)cc2)C(=O)N[C@@H](Cc2ccc3ccccc3c2)C(=O)NC2(C(=O)N[C@@H](CCCCNC(C)=O)C(=O)N[C@@H](CC(N)=O)C(=O)N[C@@H](Cc3cccnc3)C(=O)N(C)CC(N)=O)CCOCC2)NC(=O)[C@H](CCCCNC(C)=O)NC(=O)[C@H](Cc2c[nH]c3c(C)cccc23)NC(=O)[C@H]([C@@H](C)O)NC1=O)C(=O)O` [Example 84, MeCO-Pen*-K(PEG2PEG2gEC18)-T-7MeW-K(Ac)-Pen*-AEF-2Nal-THP-K(Ac)-N-3Pya-Sar-CONH2], the pIC50 (read-out: IC50) was 10.34.

As for `CC(=O)NCCCC[C@@H]1NC(=O)[C@H](Cc2c[nH]c3c(C)cccc23)NC(=O)[C@H]([C@@H](C)O)NC(=O)[C@H](CCCCNC(=O)COCCOCCNC(=O)COCCOCCNC(=O)CC[C@H](NC(=O)CCCCCCCCCCCCCCC(=O)O)C(=O)O)NC(=O)[C@@H](NC(C)=O)C(C)(C)SSC(C)(C)[C@@H](C(=O)N[C@@H](Cc2ccc(OCCN)cc2)C(=O)N[C@@H](Cc2ccc3ccccc3c2)C(=O)NC2(C(=O)N[C@@H](CCCCNC(C)=O)C(=O)N[C@@H](CC(N)=O)C(=O)N[C@@H](Cc3cccnc3)C(=O)N(C)CC(N)=O)CCOCC2)NC1=O` [Example 85, MeCO-Pen*-K(PEG2PEG2gEC16OH)-T-7MeW-K(Ac)-Pen*-AEF-2Nal-THP-K(Ac)-N-3Pya-Sar-CONH2], the pIC50 (read-out: IC50) is 10.51.

Take `CC(=O)NCCCC[C@@H]1NC(=O)[C@H](Cc2c[nH]c3c(C)cccc23)NC(=O)[C@H]([C@@H](C)O)NC(=O)[C@H](CC(N)=O)NC(=O)[C@@H](NC(C)=O)C(C)(C)SSC(C)(C)[C@@H](C(=O)N[C@@H](Cc2ccc(OCCN)cc2)C(=O)N[C@@H](Cc2ccc3ccccc3c2)C(=O)NC2(C(=O)N[C@@H](CCCCNC(=O)COCCOCCNC(=O)COCCOCCNC(=O)[C@H]3CC[C@H](CNC(=O)CC[C@H](NC(=O)CCCCCCCCCCCCCCCCC(=O)O)C(=O)O)CC3)C(=O)N[C@@H](CC(N)=O)C(=O)N[C@@H](Cc3cccnc3)C(=O)N(C)CC(N)=O)CCOCC2)NC1=O` [Example 90, MeCO-Pen*-N-T-7MeW-K(Ac)-Pen*-AEF-2Nal-THP-K(PEG2PEG2TrxgEC18OH)-N-3Pya-Sar-CONH2]: the negative-log IC50 (pIC50) (read-out: IC50) was 9.92.

Turning to `CC(=O)NCCCC[C@@H]1NC(=O)[C@H](Cc2c[nH]c3c(C)cccc23)NC(=O)[C@H]([C@@H](C)O)NC(=O)[C@H](CC(N)=O)NC(=O)[C@@H](NC(C)=O)C(C)(C)SSC(C)(C)[C@@H](C(=O)N[C@@H](Cc2ccc(OCCN)cc2)C(=O)N[C@@H](Cc2ccc3ccccc3c2)C(=O)NC2(C(=O)N[C@@H](CCCCNC(=O)COCCOCCNC(=O)COCCOCCNC(=O)[C@H]3CC[C@H](CNC(=O)CC[C@H](NC(=O)CCCCCCCCCCCCCCCCCCC(=O)O)C(=O)O)CC3)C(=O)N[C@@H](CC(N)=O)C(=O)N[C@@H](Cc3cccnc3)C(=O)N(C)CC(N)=O)CCOCC2)NC1=O` [Example 92, MeCO-Pen*-N-T-7MeW-K(Ac)-Pen*-AEF-2Nal-THP-K(PEG2PEG2TrxgEC20OH)-N-3Pya-Sar-CONH2], the pIC50 (read-out: IC50) is 9.74.

As to `CCCCCCCCCCCCCCCC(=O)N[C@@H](CCC(=O)NCCCC[C@H](NC(=O)C1(NC(=O)[C@H](Cc2ccc3ccccc3c2)NC(=O)[C@H](Cc2ccc(OCCN)cc2)NC(=O)[C@H]2NC(=O)[C@H](CCCCNC(C)=O)NC(=O)[C@H](Cc3c[nH]c4c(C)cccc34)NC(=O)[C@H]([C@@H](C)O)NC(=O)[C@H](CC(N)=O)NC(=O)[C@@H](NC(=O)[C@H](CCCCNC(=O)COCCOCCNC(=O)COCCOCCNC(=O)CC[C@H](NC(=O)CCCCCCCCC(=O)O)C(=O)O)NC(C)=O)C(C)(C)SSC2(C)C)CCOCC1)C(=O)N[C@@H](CC(N)=O)C(=O)N[C@@H](Cc1cccnc1)C(=O)N(C)CC(N)=O)C(=O)O` [Example 93, MeCO-K(PEG2PEG2gEC10OH)-Pen*-N-T-7MeW-K(Ac)-Pen*-AEF-2Nal-THP-K(gEC16)-N-3Pya-Sar-CONH2], where the note is “read-out: IC50”, the pIC50 is 9.92.

In the case of `CC(=O)NCCCC[C@@H]1NC(=O)[C@H](Cc2c[nH]c3c(C)cccc23)NC(=O)[C@H]([C@@H](C)O)NC(=O)[C@H](CCCCNC(=O)COCCOCCNC(=O)COCCOCCNC(=O)[C@H]2CCCN2C(=O)[C@H]2CCCN2C(=O)[C@H]2CCCN2C(=O)CC[C@H](NC(=O)CCCCCCCCCCCCCCCCC(=O)O)C(=O)O)NC(=O)[C@@H](NC(=O)[C@@H](CCCNC(=N)N)NC(C)=O)C(C)(C)SSC(C)(C)[C@@H](C(=O)N[C@@H](Cc2ccc(OCCN)cc2)C(=O)N[C@@H](Cc2ccc3ccccc3c2)C(=O)NC2(C(=O)N[C@@H](CCCCNC(C)=O)C(=O)N[C@@H](CC(N)=O)C(=O)N[C@@H](Cc3cccnc3)C(=O)N(C)CC(N)=O)CCOCC2)NC1=O` [Example 100, MeCO-r-Pen*-K(PEG2PEG2pppgEC18OH)-T-7MeW-K(Ac)-Pen*-AEF-2Nal-THP-K(Ac)-N-3Pya-Sar-CONH2], under “read-out: IC50”, the negative-log IC50 (pIC50) was 9.96.

Regarding `CC(=O)NCCCC[C@@H]1NC(=O)[C@H](Cc2c[nH]c3c(C)cccc23)NC(=O)[C@H]([C@@H](C)O)NC(=O)[C@H](CC(N)=O)NC(=O)[C@@H](NC(C)=O)C(C)(C)SSC(C)(C)[C@@H](C(=O)N[C@@H](Cc2ccc(OCCN)cc2)C(=O)N[C@@H](Cc2ccc3ccccc3c2)C(=O)NC2(C(=O)N[C@@H](CCCCNC(=O)COCCOCCNC(=O)COCCOCCNC(=O)[C@H]3CCCN3C(=O)CC[C@H](NC(=O)CCCCCCCCCCCCCCCCC(=O)O)C(=O)O)C(=O)N[C@@H](CC(N)=O)C(=O)N[C@@H](Cc3cccnc3)C(=O)N(C)CC(N)=O)CCOCC2)NC1=O` [Example 106, MeCO-Pen*-N-T-7MeW-K(Ac)-Pen*-AEF-2Nal-THP-K(PEG2PEG2pgEC18OH)-N-3Pya-Sar-CONH2], the pIC50 (read-out: IC50) is 9.96.

Turning to `CC(=O)NCCCC[C@@H]1NC(=O)[C@H](Cc2c[nH]c3c(C)cccc23)NC(=O)[C@H]([C@@H](C)O)NC(=O)[C@H](CC(N)=O)NC(=O)[C@@H](NC(C)=O)C(C)(C)SSC(C)(C)[C@@H](C(=O)N[C@@H](Cc2ccc(OCCN)cc2)C(=O)N[C@@H](Cc2ccc3ccccc3c2)C(=O)NC2(C(=O)N[C@@H](CCCCNC(=O)COCCOCCNC(=O)C[N+](C)(C)CCNC(=O)COCCOCCNC(=O)CC[C@H](NC(=O)CCCCCCCCCCCCCCCCC(=O)O)C(=O)O)C(=O)N[C@@H](CC(N)=O)C(=O)N[C@@H](Cc3cccnc3)C(=O)N(C)CC(N)=O)CCOCC2)NC1=O` [Example 119, MeCO-Pen*-N-T-7MeW-K(Ac)-Pen*-AEF-2Nal-THP-K(PEG2SP6PEG2gEC18OH)-N-3Pya-Sar-CONH2], for the setting “read-out: IC50”, the pIC50 is 10.24.

“MeCO-K(GolAC16)-Pen*-N-T-7MeW-K(Ac)-Pen*-AEF-2Nal-THP-K(Ac)-N-3Pya-Sar-CONH2 [Example 135]” had a pIC50 of 10.80.

Consider “MeCO-K(PEG2 SP6 PEG2 gE C18OH)-Pen*-N-T-7MeW-K(Ac)-Pen*-AEF-2Nal-THP-K(Ac)-N-3Pya-Sar-CONH2 [Example 131]”, for which the pIC50 was 10.68.

With “MeCO-K(PEG2PEG2 C18OH)-Pen*-N-T-7MeW-K(Ac)-Pen*-AEF-2Nal-THP-K(Ac)-N-3Pya-Sar-CONH2 [Example 62]”, the negative logarithm of the IC50 (pIC50) was 10.27.

With “MeCO-K(PEG2PEG2 GolAC18OH)-Pen*-N-T-7MeW-K(Ac)-Pen*-AEF-2Nal-THP-K(Ac)-N-3Pya-Sar-CONH2 [Example 138]”, the pIC50 is 10.41.

For “MeCO-K(PEG2PEG2 gE C18OH (C)-Pen*-N-T-7MeW-K(Ac)-Pen*-AEF-2Nal-THP-K(Ac)-N-3Pya-Sar-CONH2 [Example 142]”, the negative-log IC50 (pIC50) is 11.04.

The values above are taken from patent publication US12478617B2, “Lipidated peptide inhibitors of interleukin-23 receptor” (JANSSEN BIOTECH, INC., priority 2021, dated 2025).
